{"sequences": {"note": "Chains of the proteins cited; added tags and fusions are not shown.", "UniProt P31652, whole entry": "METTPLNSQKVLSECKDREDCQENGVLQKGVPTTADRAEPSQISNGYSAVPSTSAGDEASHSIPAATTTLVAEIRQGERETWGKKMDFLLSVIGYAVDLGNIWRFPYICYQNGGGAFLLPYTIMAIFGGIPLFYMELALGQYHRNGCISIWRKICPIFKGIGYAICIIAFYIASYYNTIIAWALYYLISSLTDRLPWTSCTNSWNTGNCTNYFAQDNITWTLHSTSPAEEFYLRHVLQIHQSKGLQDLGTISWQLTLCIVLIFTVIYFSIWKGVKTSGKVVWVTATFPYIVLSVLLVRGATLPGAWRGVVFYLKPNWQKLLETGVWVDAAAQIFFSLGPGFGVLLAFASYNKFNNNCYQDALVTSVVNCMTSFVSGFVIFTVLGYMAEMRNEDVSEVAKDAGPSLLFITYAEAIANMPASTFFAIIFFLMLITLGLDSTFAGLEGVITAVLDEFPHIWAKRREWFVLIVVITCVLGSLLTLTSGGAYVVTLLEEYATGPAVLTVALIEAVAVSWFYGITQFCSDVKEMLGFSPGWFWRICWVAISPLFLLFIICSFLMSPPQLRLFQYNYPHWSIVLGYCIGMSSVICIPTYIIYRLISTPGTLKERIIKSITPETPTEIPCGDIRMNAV"}, "source": "ChEMBL document CHEMBL1128444", "about": "(J Med Chem, 1995)", "key": {"[1]": {"biological_target": "T1, Sodium-dependent serotonin transporter (Rattus norvegicus, UniProt P31652)", "assay": "Ratio of Ki value towards Serotonin transporter to that of dopamine transporter", "summary_of_the_method": "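Rat [3H]uptake into crude synaptosomes in modified Krebs phosphate buffer, pH 7.4, with dextrose, ascorbic acid and 10 μM pargyline, 3 min at 30 °C, filtered and scintillation counted. DA: male Sprague–Dawley striatum, 0.5 nM [3H]dopamine, 1 μM mazindol nonspecific. 5-HT: midbrain, 5 nM [3H]serotonin, 1 μM citalopram nonspecific. Ki by Cheng–Prusoff; 5-HT Ki/DA Ki; 3–4 experiments in triplicate.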"}, "[2]": {"biological_target": "T1, Sodium-dependent serotonin transporter", "assay": "Ratio of IC50 value against Serotonin transporter to that of dopamine transporter"}}, "data": [{"smiles": "COC(=O)[C@@H]1C2CC[C@H](C[C@@H]1c1ccccc1)N2C", "values": [{"measurement": "Ki", "setting": "[1]", "value": 0.173, "unit": "µM"}, {"measurement": "IC50", "setting": "[2]", "value": 1.96, "unit": "µM"}]}, {"smiles": "COC(=O)[C@H]1[C@@H](OC(=O)c2ccccc2)C[C@@H]2CC[C@H]1N2C", "note": "[COCAINE]", "values": [{"measurement": "Ki", "setting": "[1]", "value": 0.112, "unit": "µM"}]}]}
